Source: ChEMBL document CHEMBL1138680, “Phenoxyphenyl pyridines as novel state-dependent, high-potency sodium channel inhibitors” (J Med Chem, 2004)

Columns and labels:
[1] = molecular target: Sodium channel protein type 2 subunit alpha, Nav1.2 (Rattus norvegicus) (UniProt P04775); test: Dissociation constant for binding to resting state of rat brain NaIIa (rNav1.2) -B2 cell line stably expressed in HEK293 Cells
[2] = molecular target: Sodium channel protein type 2 subunit alpha (Rattus norvegicus) (UniProt P04775); test: Dissociation constant for binding to inactivated state of rat brain NaIIa (rNav1.2) -B2 cell line stably expressed in HEK293 Cells
[3] = Ratio between Kr to Ki; type: functional

SMILES: Nc1nnc(-c2cccc(Cl)c2Cl)c(N)n1 [LAMOTRIGINE]
- kR [1]: 1760 µM
- Ki [2]: 29.2 µM
- Ratio [3]: 60
